Measured values from PubChem BioAssay (NCI).
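96-well plates; 48 h exposure; 5 concentrations. Endpoints by linear interpolation between flanking doses. Not reached: highest tested concentration assigned. GI50 marks 50% less growth. TGI denotes the concentration required for complete inhibition of growth.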

What was measured:
Test in all cases: NCI tumour cell line growth inhibition, 48 h
UACC-62 melanoma = tested on: UACC-62 melanoma
A549 NSCLC = tested on: A549 NSCLC
MDA-MB-435 = tested on: MDA-MB-435
COLO 205 colon = tested on: COLO 205 colon
A498 renal = tested on: A498 renal
HT29 colon = tested on: HT29 colon
CAKI-1 renal = tested on: CAKI-1 renal
PC-3 prostate = tested on: PC-3 prostate
HCT-116 colon = tested on: HCT-116 colon
SF-268 CNS = tested on: SF-268 CNS
LOX IMVI melanoma = tested on: LOX IMVI melanoma
HL-60(TB) leukemia = tested on: HL-60(TB) leukemia
NCI-H23 lung = tested on: NCI-H23 lung
MALME-3M melanoma = tested on: MALME-3M melanoma
NCI-H460 lung = tested on: NCI-H460 lung
SF-539 CNS = tested on: SF-539 CNS
HS 578T breast = tested on: HS 578T breast
OVCAR-4 ovarian = tested on: OVCAR-4 ovarian
UO-31 renal = tested on: UO-31 renal
NCI/ADR-RES ovarian = tested on: NCI/ADR-RES ovarian
MOLT-4 leukemia = tested on: MOLT-4 leukemia
OVCAR-5 ovarian = tested on: OVCAR-5 ovarian
MCF7 breast = tested on: MCF7 breast
BT-549 breast = tested on: BT-549 breast
HOP-62 NSCLC = tested on: HOP-62 NSCLC
CCRF-CEM leukemia = tested on: CCRF-CEM leukemia
NCI-H226 lung = tested on: NCI-H226 lung
IGROV1 ovarian = tested on: IGROV1 ovarian
HCT-15 colon = tested on: HCT-15 colon
SNB-75 CNS = tested on: SNB-75 CNS
OVCAR-8 ovarian = tested on: OVCAR-8 ovarian
RPMI-8226 leukemia = tested on: RPMI-8226 leukemia
786-0 renal = tested on: 786-0 renal
OVCAR-3 ovarian = tested on: OVCAR-3 ovarian
SR leukemia = tested on: SR leukemia
SN12C renal = tested on: SN12C renal
M14 melanoma = tested on: M14 melanoma
KM12 colon = tested on: KM12 colon
SW-620 colon = tested on: SW-620 colon
UACC-257 melanoma = tested on: UACC-257 melanoma
SK-MEL-5 melanoma = tested on: SK-MEL-5 melanoma
DU-145 prostate = tested on: DU-145 prostate
SK-MEL-28 melanoma = tested on: SK-MEL-28 melanoma
SNB-19 CNS = tested on: SNB-19 CNS
EKVX NSCLC = tested on: EKVX NSCLC
MDA-N = tested on: MDA-N
SF-295 CNS = tested on: SF-295 CNS
T-47D breast = tested on: T-47D breast
SK-OV-3 ovarian = tested on: SK-OV-3 ovarian
HCC-2998 colon = tested on: HCC-2998 colon
ACHN renal = tested on: ACHN renal
MDA-MB-231 breast = tested on: MDA-MB-231 breast
U251 CNS = tested on: U251 CNS
RXF 393 renal = tested on: RXF 393 renal
NCI-H522 lung = tested on: NCI-H522 lung
TK-10 renal = tested on: TK-10 renal

Question: What does the source list for O=[N+]([O-])C(Cl)(Cl)/C=C(\Cl)C(Cl)(Cl)[N+](=O)[O-]?
Answer: GI50 (UACC-62 melanoma): 1.99 µM; TGI (UACC-62 melanoma): 8.69 µM; GI50 (A549 NSCLC): 15 µM; TGI (A549 NSCLC): 32.3 µM; GI50 (MDA-MB-435): 2.03 µM; TGI (MDA-MB-435): 11.3 µM; GI50 (COLO 205 colon): 1.25 µM; TGI (COLO 205 colon): 3.35 µM; GI50 (A498 renal): 14.5 µM; TGI (A498 renal): 28.9 µM; GI50 (HT29 colon): 0.284 µM; TGI (HT29 colon): 1.9 µM; GI50 (CAKI-1 renal): 0.835 µM; TGI (CAKI-1 renal): 4.52 µM; GI50 (PC-3 prostate): 2.86 µM; TGI (PC-3 prostate): 8.35 µM; GI50 (HCT-116 colon): 0.772 µM; TGI (HCT-116 colon): 3.05 µM; GI50 (SF-268 CNS): 3.02 µM; TGI (SF-268 CNS): 19.5 µM; GI50 (LOX IMVI melanoma): 0.0322 µM; TGI (LOX IMVI melanoma): 0.248 µM; GI50 (HL-60(TB) leukemia): 0.101 µM; TGI (HL-60(TB) leukemia): 0.919 µM; GI50 (NCI-H23 lung): 1.06 µM; TGI (NCI-H23 lung): 3.38 µM; GI50 (MALME-3M melanoma): 1.78 µM; TGI (MALME-3M melanoma): 3.52 µM; GI50 (NCI-H460 lung): 5.46 µM; TGI (NCI-H460 lung): 20.5 µM; GI50 (SF-539 CNS): 6.11 µM; TGI (SF-539 CNS): 18.8 µM; GI50 (HS 578T breast): 9.23 µM; TGI (HS 578T breast): 45.8 µM; GI50 (OVCAR-4 ovarian): 23.1 µM; TGI (OVCAR-4 ovarian): 51.7 µM; GI50 (UO-31 renal): 11.3 µM; TGI (UO-31 renal): 24.6 µM; GI50 (NCI/ADR-RES ovarian): 2.69 µM; TGI (NCI/ADR-RES ovarian): 12 µM; GI50 (MOLT-4 leukemia): 4.91 µM; TGI (MOLT-4 leukemia): 24.7 µM; GI50 (OVCAR-5 ovarian): 21.7 µM; TGI (OVCAR-5 ovarian): 38.8 µM; GI50 (MCF7 breast): 2.02 µM; TGI (MCF7 breast): 5.16 µM; GI50 (BT-549 breast): 1.94 µM; TGI (BT-549 breast): 5.94 µM; GI50 (HOP-62 NSCLC): 21 µM; TGI (HOP-62 NSCLC): 40.4 µM; GI50 (CCRF-CEM leukemia): 0.0118 µM; TGI (CCRF-CEM leukemia): 0.236 µM; GI50 (NCI-H226 lung): 18.6 µM; TGI (NCI-H226 lung): 43.9 µM; GI50 (IGROV1 ovarian): 5.15 µM; TGI (IGROV1 ovarian): 22.9 µM; GI50 (HCT-15 colon): 0.241 µM; TGI (HCT-15 colon): 1.71 µM; GI50 (SNB-75 CNS): 3.31 µM; TGI (SNB-75 CNS): 9.78 µM; GI50 (OVCAR-8 ovarian): 2.02 µM; TGI (OVCAR-8 ovarian): 8.46 µM; GI50 (RPMI-8226 leukemia): 8.23 µM; GI50 (786-0 renal): 1.81 µM; TGI (786-0 renal): 3.37 µM; GI50 (OVCAR-3 ovarian): 1.51 µM; TGI (OVCAR-3 ovarian): 3.1 µM; GI50 (SR leukemia): 0.208 µM; TGI (SR leukemia): 2.81 µM; GI50 (SN12C renal): 1.5 µM; TGI (SN12C renal): 4.13 µM; GI50 (M14 melanoma): 0.196 µM; TGI (M14 melanoma): 1.62 µM; GI50 (KM12 colon): 7.01 µM; TGI (KM12 colon): 24.9 µM; GI50 (SW-620 colon): 0.149 µM; TGI (SW-620 colon): 1.58 µM; GI50 (UACC-257 melanoma): 0.69 µM; TGI (UACC-257 melanoma): 2.81 µM; GI50 (SK-MEL-5 melanoma): 5.24 µM; TGI (SK-MEL-5 melanoma): 14.1 µM; GI50 (DU-145 prostate): 12.7 µM; TGI (DU-145 prostate): 31.1 µM; GI50 (SK-MEL-28 melanoma): 1.12 µM; TGI (SK-MEL-28 melanoma): 5.21 µM; GI50 (SNB-19 CNS): 16.1 µM; TGI (SNB-19 CNS): 34.1 µM; GI50 (EKVX NSCLC): 19.9 µM; TGI (EKVX NSCLC): 43.4 µM; GI50 (MDA-N): 1.2 µM; TGI (MDA-N): 2.62 µM; GI50 (SF-295 CNS): 13.2 µM; TGI (SF-295 CNS): 28.2 µM; GI50 (T-47D breast): 0.38 µM; TGI (T-47D breast): 2.14 µM; GI50 (SK-OV-3 ovarian): 14.7 µM; TGI (SK-OV-3 ovarian): 27.9 µM; GI50 (HCC-2998 colon): 17.8 µM; TGI (HCC-2998 colon): 45.7 µM; GI50 (ACHN renal): 5.96 µM; TGI (ACHN renal): 12.1 µM; GI50 (MDA-MB-231 breast): 3.03 µM; TGI (MDA-MB-231 breast): 14.4 µM; GI50 (U251 CNS): 15.3 µM; TGI (U251 CNS): 31.5 µM; GI50 (RXF 393 renal): 0.547 µM; TGI (RXF 393 renal): 2.14 µM; TGI (NCI-H522 lung): 0.0848 µM; GI50 (TK-10 renal): 1.13 µM; TGI (TK-10 renal): 3.33 µM
